Experimental data taken from patent publication US7071205B2 (Ligand Pharmaceuticals Incorporated, priority 2002, dated 2006).

Molecular target: T1, hPR (Homo sapiens, UniProt P06401)
T1 sequence (P06401 1-933): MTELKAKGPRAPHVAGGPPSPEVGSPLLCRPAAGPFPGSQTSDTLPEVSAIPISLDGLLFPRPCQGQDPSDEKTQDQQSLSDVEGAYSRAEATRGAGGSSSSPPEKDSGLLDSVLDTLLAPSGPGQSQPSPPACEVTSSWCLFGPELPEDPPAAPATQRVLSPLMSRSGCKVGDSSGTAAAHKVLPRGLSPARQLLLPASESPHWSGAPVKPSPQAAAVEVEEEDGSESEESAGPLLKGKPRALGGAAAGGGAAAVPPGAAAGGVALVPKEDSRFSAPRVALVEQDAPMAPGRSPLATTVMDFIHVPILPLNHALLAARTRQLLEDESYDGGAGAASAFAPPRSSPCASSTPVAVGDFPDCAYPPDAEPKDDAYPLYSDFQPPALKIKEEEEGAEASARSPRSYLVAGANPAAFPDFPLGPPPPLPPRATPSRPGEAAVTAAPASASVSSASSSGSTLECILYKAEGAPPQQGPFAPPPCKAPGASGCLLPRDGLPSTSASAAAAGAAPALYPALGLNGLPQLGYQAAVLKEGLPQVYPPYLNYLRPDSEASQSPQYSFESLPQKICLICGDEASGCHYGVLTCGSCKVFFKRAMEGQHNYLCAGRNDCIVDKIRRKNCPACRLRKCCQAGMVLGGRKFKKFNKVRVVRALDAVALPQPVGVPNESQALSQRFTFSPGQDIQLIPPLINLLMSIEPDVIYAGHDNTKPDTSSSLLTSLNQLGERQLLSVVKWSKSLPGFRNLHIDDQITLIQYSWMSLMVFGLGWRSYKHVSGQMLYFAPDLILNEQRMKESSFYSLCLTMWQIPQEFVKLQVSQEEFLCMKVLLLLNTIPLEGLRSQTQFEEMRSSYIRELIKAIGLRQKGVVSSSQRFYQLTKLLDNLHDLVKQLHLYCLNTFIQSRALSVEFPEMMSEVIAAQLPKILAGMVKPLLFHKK
Experiment: Cotransfection assay, PR agonist activity in CV-1 cells
Assay type: cell-based
Settings: MTV-LUC reporter, percent maximal response relative to progesterone

CN(C)c1ccc([C@H]2C[C@]3(C)[C@@H](CC[C@]3(O)CCCO)[C@@H]3CCC4=CC(=O)CCC4=C32)cc1 [ZK299, reference compound]
PR Agonist CV-1 Cells Efficacy (%): na (na = not active (i.e. efficacy of <20 and potency of >10,000))
